The text below walks through data of PubChem BioAssay AID529 (NMMLSC, 2006).

Protein sequences, listed by entry. Tags and fused reporters are not part of them.
UniProt P13612, whole entry, looked up: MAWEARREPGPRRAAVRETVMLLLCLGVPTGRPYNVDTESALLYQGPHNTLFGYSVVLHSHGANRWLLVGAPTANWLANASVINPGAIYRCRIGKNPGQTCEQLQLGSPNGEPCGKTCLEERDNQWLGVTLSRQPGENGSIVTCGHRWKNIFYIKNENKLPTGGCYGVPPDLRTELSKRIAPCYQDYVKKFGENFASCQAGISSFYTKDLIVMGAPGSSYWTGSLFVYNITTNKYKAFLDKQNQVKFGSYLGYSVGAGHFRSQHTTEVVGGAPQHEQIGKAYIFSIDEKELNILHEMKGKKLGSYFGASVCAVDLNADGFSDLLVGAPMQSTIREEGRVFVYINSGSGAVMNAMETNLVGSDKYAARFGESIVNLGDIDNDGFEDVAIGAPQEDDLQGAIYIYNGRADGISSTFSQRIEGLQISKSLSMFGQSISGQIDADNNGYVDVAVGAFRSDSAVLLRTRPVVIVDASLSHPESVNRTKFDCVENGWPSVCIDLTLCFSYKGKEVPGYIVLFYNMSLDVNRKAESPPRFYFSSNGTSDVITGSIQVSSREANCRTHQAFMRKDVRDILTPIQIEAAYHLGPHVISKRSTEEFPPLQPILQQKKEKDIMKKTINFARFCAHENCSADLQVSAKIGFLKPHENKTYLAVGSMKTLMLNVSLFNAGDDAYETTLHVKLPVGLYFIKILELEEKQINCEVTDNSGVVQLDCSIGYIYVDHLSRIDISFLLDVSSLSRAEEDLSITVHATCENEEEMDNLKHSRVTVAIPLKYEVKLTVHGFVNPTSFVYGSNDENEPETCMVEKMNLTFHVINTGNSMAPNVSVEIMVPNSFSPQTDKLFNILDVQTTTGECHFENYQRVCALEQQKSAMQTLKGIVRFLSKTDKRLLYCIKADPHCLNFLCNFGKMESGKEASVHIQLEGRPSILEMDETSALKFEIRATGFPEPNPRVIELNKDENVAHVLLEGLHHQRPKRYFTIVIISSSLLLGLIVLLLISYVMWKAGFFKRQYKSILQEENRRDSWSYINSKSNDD

Each structure is given as a SMILES string. This is a selection; strong and weak results do not stand in their true shares. Inconclusive results are not listed. Active and inactive are the calls of the source.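 How the source made its calls: active means inhibition above 50%; inconclusive means compound itself fluorescent, judged against control cell fluorescence; inactive means the rest.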

The test deals with Integrin alpha-4 (Homo sapiens) (UniProt P13612). The experiment in a line: blockers of LDV-FITC ligand binding on VLA-4 – Jurkat cells, Mn2+ activated, primary screen (AID 529).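 Further: 0% = Mn2+ stimulated cells lacking compound and 100% = ligand binding without Mn2+.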 The following applies: LDV-FITC binding with Mn2+, flow cytometry, hits give high values, screened at 10 µM (by protocol), 100% = Mn2+-driven binding gain fully reversed. Background: A flow cytometer gives signals particle by particle.
As to `N#CC1(Nc2ccccc2)CCN(CCc2ccccc2)CC1`, the inhibition is inactive: 3%.
Then `Fc1ccccc1NC1CCN(Cc2ccccc2)CC1`, with inactive: -22%.

One may read the inhibition as the change of the read-out against control, counted positive when it falls.
